The test in a line: Selectivity index, ratio of IC50 for inhibition of PTP1B (unknown origin) by p-nitrophenylphosphate assay to IC50 for inhibition of mouse Eya3 catalytic domain (223 to 510 residues) by p-nitrophenylphosphate assay.

SMILES strings stand for the structures.

For the molecule `CCc1oc2ccccc2c1C(=O)c1cc(Br)c(O)c(Br)c1` [BENZBROMARONE], the Ratio IC50 lay within 4.7 to 6.5.

These data come from ChEMBL document CHEMBL4257222, “Use of small molecule inhibitors targeting eya tyrosine phosphatase” (2016).
